Results: US20130079364A1, “Peripheral Opioid Agonists and Peripheral Opioid Antagonists” (SIGNATURE THERAPEUTICS, INC., priority 2010, published 2013)

Key:
[1] = Pharmacokinetics following PO administration to rats (plasma, HPLC/MS)
Protocol: At specified time points, blood samples were drawn, harvested for plasma via centrifugation at 5,400 rpm at 4° C. for 5 min, and 100 microliters (μl) plasma transferred from each sample into a fresh tube containing 2 μl of 50% formic acid. The tubes were vortexed for 5-10 seconds, immediately placed in dry ice and then stored in a −80° C. freezer until analysis by HPLC/MS.
(§1) At specified time points, blood samples were drawn, harvested for plasma via centrifugation at 5,400 rpm at 4° C. for 5 min, and 100 μl plasma transferred from each sample into a fresh tube containing 2 μl of 50% formic acid. The tubes were vortexed for 5-10 seconds, immediately placed in dry ice and then stored in a −80° C. freezer until analysis by HPLC/MS.
as §1, §1

[2] = Pharmacokinetics following IV administration to rats (plasma, HPLC/MS)
[3] = rat, in vivo, iv, 10 mg/kg

Substance: N-methyl-N-(naloxone-6-enol-carbonyl-methyl amino)ethylamine-arginine-malonic acid [Compound AN-3]
- Compound AN-3 Cmax ± sd ([1]; rat plasma, PO 20 mg/kg (26 μmol/kg) Compound AN-3): 0.0455 ± 0.013 µg/mL
- Compound AN-3 Tmax ± sd ([1]; rat plasma, PO 20 mg/kg Compound AN-3): 45 ± 17.4 min
- plasma concentration of naltrexone released as % of plasma concentration of Compound AN-3 ([1]; rats, PO Compound AN-3): about 0.13%
- Compound AN-3 Cmax ± sd ([2]; rat plasma, IV 10 mg/kg (13 μmol/kg) Compound AN-3): 57,900 ± 4,100 ng/mL
- plasma concentration of naltrexone as % of plasma concentration of Compound AN-3 ([2]; rats, IV Compound AN-3): 0.015%
- Compound conc. in CSF [3]: 0.0744 µg/mL
- Compound conc. in plasma [3]: 57,900 ng/mL
- Plasma/CSF partitioning coefficient [3]: 778
